Test results: article PMC8044178, “Structural basis of norepinephrine recognition and transport inhibition in neurotransmitter transporters” (Nature Communications, 2021)

Test system: NCCc1ccc(O)c(O)c1
Assay: cells, lysate or membranes

dDATfc (Drosophila melanogaster; DEL164-191/F471L/L415A/V74A)
Km: 3.6 µM
